According to patent publication US5760092A, “Allocolchinones and uses thereof” (Brandeis University, priority 1996, dated 1998):
Where “and” joins values, the source holds several entries; their conditions need not be identical. Equal values may be shown once. Read-outs that look alike come from different tables or passages of the source.

Legend:
[1] = test system: COLO 205 colon cancer cells
[2] = test system: HL-60 (TB) leukemia cells
[3] = test system: COLO 205 colon cancer cells; test: cells; settings: Homo sapiens, COLO 205, read-out: Percent Growth
SR leukemia cells = test: cells; settings: Homo sapiens, read-out: LC50
MALME-3M melanoma cells = test: cells; settings: Homo sapiens, read-out: LC50
[4] = test system: MDA-N breast cancer cells; test: cells; settings: Homo sapiens, read-out: LC50
[5] = test system: T-47D breast cancer cells; test: cells; settings: Homo sapiens, T47D, read-out: LC50
[6] = test system: HCT-15 colon cancer cells; test: cells; settings: Homo sapiens, HCT-15, read-out: LC50
[7] = test system: NCI-H226 non-small cell lung cancer cells; test: cells; settings: Homo sapiens, NCI-H226, read-out: LC50
[8] = test system: A549/ATCC non-small cell lung cancer cells; test: cells; settings: Homo sapiens, A549, read-out: LC50
[9] = test system: NCI-H322M non-small cell lung cancer cells; test: cells; settings: Homo sapiens
RPMI-8226 leukemia cells = test: cells; settings: Homo sapiens, RPMI-8226, read-out: LC50
[10] = test system: OVCAR-4 ovarian cancer cells; test: cells; settings: Homo sapiens, OVCAR-4, read-out: LC50
[11] = test system: BT-549 breast cancer cells; test: cells; settings: Homo sapiens, BT-549, read-out: LC50
UACC-257 melanoma cells = test: cells; settings: Homo sapiens, UACC-257, read-out: LC50
[12] = test system: NCI-H460 non-small cell lung cancer cells; test: cells; settings: Homo sapiens, NCI-H460, read-out: LC50
SK-MEL-28 melanoma cells = test: cells; settings: Homo sapiens, SK-MEL-28, read-out: LC50
[13] = test system: HCT-116 colon cancer cells; test: cells; settings: Homo sapiens, HCT-116, read-out: LC50
[14] = test system: HL-60 (TB) leukemia cells; test: cells; settings: Homo sapiens
UO-31 renal cancer cells = test: cells; settings: Homo sapiens, UO-31, read-out: LC50
LOX IMVI melanoma cells = test: cells; settings: Homo sapiens, read-out: LC50
SK-MEL-2 melanoma cells = test: cells; settings: Homo sapiens, SK-MEL-2, read-out: LC50
SK-MEL-5 melanoma cells = test: cells; settings: Homo sapiens, SK-MEL-5, read-out: LC50
786-0 renal cancer cells = test: cells; settings: Homo sapiens, 786-0, read-out: LC50
[15] = test system: SW-620 colon cancer cells; test: cells; settings: Homo sapiens, SW-620, read-out: LC50
K-562 leukemia cells = test: cells; settings: Homo sapiens, K562, read-out: LC50
CCRF-CEM leukemia cells = test: cells; settings: Homo sapiens, read-out: LC50
HT29 colon cancer cells = test: cells; settings: Homo sapiens, HT-29, read-out: LC50
M14 melanoma cells = test: cells; settings: Homo sapiens, M14, read-out: LC50
UACC-62 melanoma cells = test: cells; settings: Homo sapiens, UACC-62, read-out: LC50
TK-10 renal cancer cells = test: cells; settings: Homo sapiens, TK-10, read-out: LC50
ACHN renal cancer cells = test: cells; settings: Homo sapiens, read-out: LC50
[16] = test system: OVCAR-5 ovarian cancer cells; test: cells; settings: Homo sapiens, OVCAR-5, read-out: LC50
[17] = test system: IGR-OV1 ovarian cancer cells; test: cells; settings: Homo sapiens, IGROV-1, read-out: LC50
[18] = test system: MDA-MB-231/ATCC breast cancer cells; test: cells; settings: Homo sapiens, MDA-MB-231, read-out: LC50
[19] = test system: MDA-MB-435 breast cancer cells; test: cells; settings: Homo sapiens, MDA-MB-435, read-out: LC50
[20] = test system: EKVX non-small cell lung cancer cells; test: cells; settings: Homo sapiens, read-out: LC50
[21] = test system: DU-145 prostate cancer cells; test: cells; settings: Homo sapiens, DU-145, read-out: LC50
[22] = test system: HCC-2998 colon cancer cells; test: cells; settings: Homo sapiens, HCC 2998, read-out: LC50
[23] = test system: PC-3 prostate cancer cells; test: cells; settings: Homo sapiens, read-out: LC50
SN12C renal cancer cells = test: cells; settings: Homo sapiens, read-out: LC50
MCF7 breast cancer cells = test: cells; settings: Homo sapiens, MCF7, read-out: LC50
KM12 colon cancer cells = test: cells; settings: Homo sapiens, KM12, read-out: LC50
[24] = HL-60, read-out: Percent Growth

For `CCCC(=O)NC1CCc2cc(OC)c(OC)c(OC)c2-c2ccc(C(C)=O)cc21` (stereo not drawn), the “Percent Growth” value ([1]; 0.1 µM) was -38%, the “Percent Growth” value ([1]; 1 µM) was -88% and -83% and the “Percent Growth” value ([1]; 10 µM) was -91% and -85%. The “Percent Growth” value ([2]; 0.01 µM) was -17%, the “Percent Growth” value ([2]; 1 µM) was -23% and -30% and the “Percent Growth” value ([2]; 10 µM) was -22% and -24%. The “Percent Growth” value ([2]; 100 µM) was -22% and -14% and the activity at 100 µM [3] was -98%.
In the case of `COc1cc2c(c(OC)c1OC)-c1ccc(OC)c(=O)cc1[C@@H](NC(C)=O)CC2` [Colchicine, reference compound], the CC50 (SR leukemia cells) was > 100 µM, the CC50 (MALME-3M melanoma cells) was > 100 µM and the CC50 [4] was > 100 µM. The CC50 [5] was > 100 µM, the CC50 [6] was > 100 µM and the CC50 [7] was > 100 µM. For the same compound, the CC50 [8] was > 100 µM, the GI50 [9] was 0.0611 µM and the CC50 ([9]; read-out: LC50) was > 100 µM. For the same compound, the activity at 0.01 µM ([9]; read-out: Percent Growth) was 102%, the activity at 0.1 µM ([9]; read-out: Percent Growth) was 36% and the activity at 1 µM ([9]; read-out: Percent Growth) was 31%. The activity at 10 µM ([9]; read-out: Percent Growth) was 25%, the activity at 100 µM ([9]; read-out: Percent Growth) was 22% and the CC50 (RPMI-8226 leukemia cells) was > 100 µM. The CC50 [10] was > 100 µM, the CC50 [11] was > 100 µM and the CC50 (UACC-257 melanoma cells) was > 100 µM. The CC50 [12] was > 100 µM, the CC50 (SK-MEL-28 melanoma cells) was > 100 µM and the CC50 [13] was > 100 µM. For the same compound, the CC50 ([14]; HL-60, read-out: LC50) was > 100 µM, the CC50 (UO-31 renal cancer cells) was > 100 µM and the CC50 (LOX IMVI melanoma cells) was 42.2 µM. For the same compound, the CC50 (SK-MEL-2 melanoma cells) was > 100 µM, the CC50 (SK-MEL-5 melanoma cells) was > 100 µM and the CC50 (786-0 renal cancer cells) was > 100 µM. For the same compound, the CC50 [15] was > 100 µM, the CC50 (K-562 leukemia cells) was > 100 µM and the CC50 (CCRF-CEM leukemia cells) was > 100 µM. The CC50 (HT29 colon cancer cells) was > 100 µM, the CC50 (M14 melanoma cells) was > 100 µM and the CC50 (UACC-62 melanoma cells) was 59.6 µM. The CC50 (TK-10 renal cancer cells) was > 100 µM, the CC50 (ACHN renal cancer cells) was > 100 µM and the CC50 [16] was > 100 µM. The CC50 [17] was > 100 µM, the CC50 [18] was > 100 µM and the CC50 [19] was > 100 µM. The CC50 [20] was > 100 µM, the CC50 [21] was > 100 µM and the CC50 [22] was > 100 µM. For the same compound, the CC50 [23] was > 100 µM, the CC50 (SN12C renal cancer cells) was > 100 µM and the CC50 (MCF7 breast cancer cells) was > 100 µM. For the same compound, the CC50 (KM12 colon cancer cells) was > 100 µM.
With `COc1cc2c(c(OC)c1OC)-c1ccc(C(C)=O)cc1C(NC(C)=O)CC2` (stereo not drawn) the “Percent Growth” value ([1]; 0.1 µM) was -25%, the “Percent Growth” value ([1]; 1 µM) was -64% and the “Percent Growth” value ([2]; 1 µM) was 4%. The activity at 0.0001 µM [14, 24] was 87%, the activity at 0.001 µM [14, 24] was -40% and the activity at 10 µM [14, 24] was 9%. The activity at 100 µM [14, 24] was 10%, the activity at 0.0001 µM [3] was 97% and the activity at 0.001 µM [3] was 50%.
